Test results: patent publication US20180244725

Test system: R5 peptide

Substance: Protein Kinase A (PKA) (NEB P6000S)
- proportion of phosphorylated R5 (LC-MS): could increase the proportion of phosphorylated R5 to 66% of the total R5 population
